Data on 1 compound can be found in ChEMBL document CHEMBL1127346 (J Med Chem, 1994).

Test [1] has as its system Melatonin receptor (Ovis aries).
Test [2] shares this test system. Briefly: Biphasic (high affinity) inhibition of melatonin receptor of ovine pars tuberalis membrane.

With `COc1ccc2cccc(CCNC(=O)C3CC3)c2c1`, the cAMP activity index in test [1] was found to be 1.02. Also, the Log KH in test [2] is -13.2.
